These results are taken from patent publication US20230024302A1 (published 2023).

By UniProt entry, the sequences of proteins in these tests, tags left out. Where a name states a change or a piece, a line headed by the entry shows the natural chain unless it says otherwise.
UniProt P48736: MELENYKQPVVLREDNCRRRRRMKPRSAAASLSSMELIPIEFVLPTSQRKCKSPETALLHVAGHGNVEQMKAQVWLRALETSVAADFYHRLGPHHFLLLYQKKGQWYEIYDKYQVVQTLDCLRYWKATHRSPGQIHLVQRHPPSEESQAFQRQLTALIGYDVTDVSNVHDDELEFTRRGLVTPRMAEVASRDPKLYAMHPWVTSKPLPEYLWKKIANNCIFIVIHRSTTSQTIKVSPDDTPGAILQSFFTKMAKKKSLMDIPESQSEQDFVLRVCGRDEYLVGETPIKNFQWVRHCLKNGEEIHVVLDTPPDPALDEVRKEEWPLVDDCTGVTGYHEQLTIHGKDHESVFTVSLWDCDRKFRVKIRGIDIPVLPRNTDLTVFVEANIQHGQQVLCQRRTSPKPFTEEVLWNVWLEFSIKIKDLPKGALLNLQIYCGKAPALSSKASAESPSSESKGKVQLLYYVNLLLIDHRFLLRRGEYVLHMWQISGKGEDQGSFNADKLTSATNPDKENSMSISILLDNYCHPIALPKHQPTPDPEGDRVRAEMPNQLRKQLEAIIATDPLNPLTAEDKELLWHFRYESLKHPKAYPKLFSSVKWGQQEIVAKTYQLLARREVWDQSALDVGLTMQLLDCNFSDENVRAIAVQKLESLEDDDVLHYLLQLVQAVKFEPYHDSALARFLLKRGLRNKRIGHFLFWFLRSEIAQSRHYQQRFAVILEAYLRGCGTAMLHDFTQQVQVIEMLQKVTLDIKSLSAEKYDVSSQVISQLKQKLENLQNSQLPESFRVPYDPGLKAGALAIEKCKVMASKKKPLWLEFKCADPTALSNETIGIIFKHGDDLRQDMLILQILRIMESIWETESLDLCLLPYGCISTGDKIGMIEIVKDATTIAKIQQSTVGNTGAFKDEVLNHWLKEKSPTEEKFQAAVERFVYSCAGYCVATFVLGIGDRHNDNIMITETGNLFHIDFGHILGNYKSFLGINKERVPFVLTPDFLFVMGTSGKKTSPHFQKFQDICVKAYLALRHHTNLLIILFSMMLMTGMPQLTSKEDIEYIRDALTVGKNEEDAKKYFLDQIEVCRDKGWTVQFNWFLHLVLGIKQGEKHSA

This test deals with PI3Kγ (p120γ) (Homo sapiens, UniProt P48736). Put plainly: Inhibition of PI3K kinase activity (ADP Glo), PI3Kγ.

Some results are limits rather than exact numbers.

For `CC(C)S(=O)(=O)c1cc(-c2ccn3nc(N)c(C(=O)NC4CC4)c3n2)cc2c1C(=O)N([C@@H](C)C1CC1)C2` [Example 134, 2-Amino-N-cyclopropyl-5-{2-[(1S)-1-cyclopropylethyl]-1-oxo-7-(propane-2-sulfonyl)-2,3-dihydro-1H-isoindol-5-yl}pyrazolo[1,5-a]pyrimidine-3-carboxamide], the half-maximal inhibitory concentration (IC50) was less than 100 nM.
